From publication PMC7701984 (Journal of medicinal chemistry, 2019)

How the values were obtained:
[1] = test system: Human PBMCs containing naïve Vγ9Vδ2 T cells; test: IFN-γ production of PBMCs by ELISA; format: cell-based; conditions: PBMC, 48 h, read-out: IFN-γ EC50 (μM) with 95% CI
Vγ9Vδ2 T cells = conditions: read-out: Proliferation EC50 (μM) with 95% CI; footnote a; ref Hsiao 2014; cited from earlier work

Row | Structure (SMILES) | EC50 [1] | EC50 (Vγ9Vδ2 T cells)
1 | CC(C)=CCOP(=O)(O)OP(=O)(O)O [Compound 2, dimethylallyl diphosphate] | 1.5 µM | 
2 | C=C(C)CCOP(=O)(O)OP(=O)(O)O [Compound 3, isopentenyl diphosphate] | 71 µM | 36 µM
